Laboratory results published in patent US7700602B2, “Amino-5,5-diphenylimidazolone derivatives for the inhibition of β-secretase” (Wyeth LLC, priority 2004, dated 2010).

Chains of the proteins cited; added tags and fusions are not shown. Residues count along the entry.
UniProt Q9Y5Z0, 63-518 limits assumed: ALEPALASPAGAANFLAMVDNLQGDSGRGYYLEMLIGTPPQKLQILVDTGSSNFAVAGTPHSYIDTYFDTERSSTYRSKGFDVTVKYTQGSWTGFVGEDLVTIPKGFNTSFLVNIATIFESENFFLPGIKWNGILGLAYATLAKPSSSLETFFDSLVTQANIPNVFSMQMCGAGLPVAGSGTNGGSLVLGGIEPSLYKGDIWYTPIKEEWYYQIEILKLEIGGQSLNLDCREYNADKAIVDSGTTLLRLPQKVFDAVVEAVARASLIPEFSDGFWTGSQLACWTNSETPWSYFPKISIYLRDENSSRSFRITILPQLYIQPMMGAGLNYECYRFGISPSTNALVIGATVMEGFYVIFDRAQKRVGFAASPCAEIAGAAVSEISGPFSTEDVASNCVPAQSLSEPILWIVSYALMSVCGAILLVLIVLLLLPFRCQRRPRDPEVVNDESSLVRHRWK
UniProt P56817, 46-501 limits assumed: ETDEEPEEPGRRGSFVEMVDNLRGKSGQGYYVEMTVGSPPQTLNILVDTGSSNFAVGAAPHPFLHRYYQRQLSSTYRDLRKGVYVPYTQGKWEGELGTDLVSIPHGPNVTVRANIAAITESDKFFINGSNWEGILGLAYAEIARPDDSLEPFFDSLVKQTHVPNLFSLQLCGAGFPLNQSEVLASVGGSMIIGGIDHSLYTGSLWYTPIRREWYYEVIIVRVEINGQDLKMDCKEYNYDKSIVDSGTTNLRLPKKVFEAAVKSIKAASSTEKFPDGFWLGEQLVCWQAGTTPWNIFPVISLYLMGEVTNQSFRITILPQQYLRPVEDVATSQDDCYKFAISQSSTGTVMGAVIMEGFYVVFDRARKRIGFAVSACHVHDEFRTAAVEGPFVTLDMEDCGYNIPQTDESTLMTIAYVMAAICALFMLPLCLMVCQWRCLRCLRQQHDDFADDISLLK

Legend:
human BACE2 = human BACE2 (Homo sapiens, UniProt Q9Y5Z0); assay: Fluorescent Kinetic Assay for Human Recombinant BACE 2 (selectivity BACE1/BACE2); assay type: biochemical; details: selectivity BACE1 over BACE2; 1.5 nM human BACE2, 25 μM substrate, pH 4.5;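 also: cleavage rate from the linear slope of fluorescence (excitation 320 nm, emission 420 nm) recorded every 40 s over 30 min at room temperature, sodium acetate buffer with 0.05% CHAPS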
human BACE1 = human BACE1 (Homo sapiens, UniProt P56817); assay: Fluorescent kinetic assay, inhibition of BACE1 (WABC-6 peptide substrate); assay type: biochemical; details: read-out: IC50 (μM) BACE1; 10 nM enzyme, 25 μM substrate WABC-6, pH 4.5, room temperature;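 also: fluorescence monitored at 320 nm excitation and 420 nm emission every 40 s over 30 min, with the substrate cleavage rate taken from the linear slope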

BACE1/BACE2 selectivity (human BACE2) | IC50 (human BACE1) [µM] | SMILES
I (I = >100-fold selectivity) | 0.01 to 0.1 | CN1C(=O)C(c2ccc(OCCF)cc2)(c2cccc(-c3cncnc3)c2)N=C1N (stereo not shown)
II (II = 10-100-fold selectivity) | 0.01 to 0.1 | COc1ccc(C2(c3cccc(-c4cnccn4)c3)N=C(N)N(C)C2=O)cc1C(F)(F)F (stereo not shown)
